The values that follow are results of earlier work, collected in patent US8986652B2, “Method of preparing [123I]iodooctyl fenbufen amide and application thereof” (National Tsing Hua University, priority 2012, dated 2015).

The chains behind the UniProt entries cited, without tags or fusion partners. Residues count along the entry.
UniProt P23219, 24-599: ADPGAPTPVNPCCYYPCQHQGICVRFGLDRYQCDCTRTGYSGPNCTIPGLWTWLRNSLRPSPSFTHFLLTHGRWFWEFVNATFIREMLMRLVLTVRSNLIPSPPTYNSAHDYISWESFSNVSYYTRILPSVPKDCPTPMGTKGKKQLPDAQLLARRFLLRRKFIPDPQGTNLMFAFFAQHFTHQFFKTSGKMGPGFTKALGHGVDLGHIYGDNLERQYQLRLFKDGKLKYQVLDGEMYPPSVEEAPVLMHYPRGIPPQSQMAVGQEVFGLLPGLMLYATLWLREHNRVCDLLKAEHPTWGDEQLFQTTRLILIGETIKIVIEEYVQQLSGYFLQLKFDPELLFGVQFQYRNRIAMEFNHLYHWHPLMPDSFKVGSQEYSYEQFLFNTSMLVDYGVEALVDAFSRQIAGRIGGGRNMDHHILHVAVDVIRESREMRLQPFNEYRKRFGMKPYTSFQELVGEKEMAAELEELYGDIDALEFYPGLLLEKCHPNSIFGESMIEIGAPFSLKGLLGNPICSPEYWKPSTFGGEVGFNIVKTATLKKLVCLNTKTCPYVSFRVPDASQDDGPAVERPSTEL

The target of the data set is COX-1 (Homo sapiens, UniProt P23219). Particulars: read-out: IC50 value COX-1, lit. data; cited from earlier work.

As for `Oc1ccc(C=Cc2cc(O)cc(O)c2)cc1` [Resveratrol], the IC50 (commonly the concentration that gives 50% inhibition) was 1560 nM.
